The species entered for the test is Cavia porcellus. The experiment in a line: Selectivity index, ratio of Ki for sigma2 receptor in guinea pig brain membrane […]. It counts as cell membranes.

For `COC(=O)C1(c2ccccc2)CC1CN1CCC(O)(c2ccc(Cl)cc2)CC1` (racemic), the Ratio Ki was found to be 4.2.
In the case of `COC(=O)C1(c2ccccc2)CC1CN1CCC(O)(c2ccc(Cl)cc2)CC1` (single isomer, unassigned; (-)) it was 4.2.

The values above are taken from ChEMBL document CHEMBL4028917, “(+)-Methyl (1R,2S)-2-{[4-(4-Chlorophenyl)-4-hydroxypiperidin-1-yl]methyl}-1-phenylcyclopropanecarboxylate [(+)-MR200] Derivatives as Potent and Selective Sigma Receptor Ligands: Stereochemistry and Pharmacological Properties” (J Med Chem, 2018).
